# Laboratory results taken from publication PMC5481443, “High-throughput Screening of Small Molecule Inhibitors of the Streptococcus Quorum-sensing Signal Pathway” (Scientific Reports, 2017).
# Test system: CC(C)C[C@H](NC(=O)[C@H](CCC(=O)O)NC(=O)[C@H](CCCCN)NC(=O)[C@H](CCC(=O)O)NC(=O)[C@H](CC(N)=O)NC(=O)[C@H](CC(C)C)NC(=O)[C@@H](NC(=O)[C@@H]1CCCN1C(=O)[C@H](Cc1ccccc1)NC(=O)[C@H](CCC(N)=O)NC(=O)[C@H](C)N)C(C)C)C(=O)N[C@@H](CCCCN)C(=O)N[C@@H](CCC(=O)O)C(=O)N[C@H](C(=O)N[C@@H](CC(C)C)C(=O)NCC(=O)NCC(=O)Nc1ccc2c(C(F)(F)F)cc(=O)oc2c1)C(C)C
# Experiment: purified protein, by the assay type
# Settings: other: saturation curve, pH 7.0, 25 °C, Fig. S1
substance,measurement,value
S. pneumoniae PEP (Streptococcus pneumoniae TIGR4),Km,7.9 µM
same,kcat,0.00217 s⁻¹
